Consider one compound from PubChem BioAssay AID1745853 (National Center for Advancing Translational Sciences (NCATS), 2022).

Chains of the proteins cited; added tags and fusions are not shown.
UniProt P21964, whole entry: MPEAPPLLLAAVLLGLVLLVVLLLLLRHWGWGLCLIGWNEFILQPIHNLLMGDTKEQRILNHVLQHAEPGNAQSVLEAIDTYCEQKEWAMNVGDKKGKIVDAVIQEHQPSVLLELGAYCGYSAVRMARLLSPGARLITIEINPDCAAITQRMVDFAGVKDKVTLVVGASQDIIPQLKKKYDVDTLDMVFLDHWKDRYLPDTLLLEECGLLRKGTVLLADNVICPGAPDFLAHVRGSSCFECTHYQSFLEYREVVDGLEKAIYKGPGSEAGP

The structures appear in SMILES notation. This is a selection; strong and weak results do not stand in their true shares. Records with an inconclusive call do not appear. Active and inactive are the calls of the source. The rule behind the calls is not given here.
% is set by controls: 0 for no effect and ±100 for the full control effect.

This assay has as its target Catechol O-methyltransferase (Homo sapiens) (UniProt P21964). Put plainly: Primary Screen for Target Class Profiling of Small Molecule Inhibitors of Methyltransferases. Conditions: purified enzyme, MTase-Glo SAH luminescence; at 40 µM; active compounds read low. The text has this:
PI: Matthew D. Hall Ph.D. and Quinlin M. Hanson Ph.D.
National Center for Advancing Translational Sciences (NCATS)
National Institute of Health (NIH), Rockville, MD
Target class profiling (TCP) is a chemical biology approach amenable to investigating understudied biological targets. TCP is achieved by developing a generalizable assay platform and applying it to screen a curated set of compound libraries against representative members of a target class. Small molecule methyltransferases (SMMTase) are a subclass of methyltransferase that act on metabolites to modulate signaling pathways, metabolize xenobiotics, or balance the available methyl pool. […]
High-through put screening assays were developed at the National Center for Advancing Translational Science (NCATS) for the enzymes NNMT, PNMT, HNMT, GNMT, COMT, and GAMT. Enzymatic activity was measured as a function of SAM cofactor conversion using the MTase Glo kit (Promega) for all enzymes. […] The IC50 and efficacy (maximal response) values were determined for each dose-response curve. […]
10; Time; 30 min; Incubation, luminescence evolution.
11; Detection; Luminescence; ViewLux uHTS Microplate Imager (PerkinElmer). […]
In the case of `CC(=O)N1CCc2ccc(N(C(=O)/C=C/c3cccc(C#N)c3)C3CCN(CCC4CCCC4)CC3)cc21`, the activity change, negative = inhibition is inactive: 7.26%.
